The experiment deals with Bcl-2 (Homo sapiens, UniProt P10415). Description: AlphaLISA competitive binding assay, Bcl-2. Also noted: purchased Sigma-Aldrich. The settings on record: His-tagged Bcl-2, biotin-tagged BIM peptide, 24 h incubation. On the procedure:
In order to evaluate the binding affinities of compound #55 for Bcl-2 family proteins, AlphaLISA competitive assay was performed at room temperature and reagents were diluted in a buffer containing 250 mM HEPES pH 7.5, 1 M NaCl, 1% BSA, and 0.05% Tween-20. Purified recombinant His-tagged Bcl-xL/Bcl-2/Bcl-w (Sigma-Aldrich, St. Louis, MO) were incubated with increasing concentrations of compound #55 and a fixed concentration of biotin-tagged Bad (for Bcl-xL) or BIM peptides (for Bcl-2 and Bcl-w) (AnaSpec, Fremont, CA) to a final volume of 40 µL in 96-well PCR plate. After 24 h incubation, 5 μL 6×His-Acceptor beads (final concentration 20 μg/mL) (PerkinElmer, Houston, TX) were added to each well and incubated for 1 h. Thereafter, 5 μL streptavidin-donor beads were added (final concentration 20 μg/mL) (PerkinElmer) to each well and incubated for 0.5 h. At the end of the incubation period, 17 μL of each sample was transferred in adjacent wells of 384-well proxy plate. The plate was scanned using Alpha program on Biotek's Synergy Neo2 multi-mode plate reader. The inhibition constant (Ki) was calculated using non-linear regression, one site, competitive binding, Fit Ki function on GraphPad Prism based on experimentally determined Kd for each protein/peptide pair.
(In general: Alpha assays give light when donor and acceptor beads are brought close together.)

By UniProt entry, the sequences of proteins in these tests, tags left out.
UniProt P10415, whole entry: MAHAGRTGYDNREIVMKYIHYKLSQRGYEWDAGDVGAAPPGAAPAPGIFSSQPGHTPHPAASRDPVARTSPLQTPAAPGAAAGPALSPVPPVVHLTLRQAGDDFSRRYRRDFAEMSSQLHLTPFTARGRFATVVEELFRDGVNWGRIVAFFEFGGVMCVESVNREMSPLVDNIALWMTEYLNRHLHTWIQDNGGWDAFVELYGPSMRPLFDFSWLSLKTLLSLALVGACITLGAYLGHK

With `CC1(C)CCC(c2ccc(Cl)cc2)=C(CN2CCN(c3ccc(C(=O)NS(=O)(=O)c4ccc(N[C@H](CCN5CCOCC5)CSc5ccccc5)c(S(=O)(=O)C(F)(F)F)c4)cc3)CC2)C1` [ABT-263, navitoclax, reference compound], the Ki turned out to be 194 pM.

The Ki is the equilibrium dissociation constant of an inhibitor or competing ligand from its target.

Source of the values: patent US12118414B2, “BCL-2 proteins degraders for cancer treatment” (BioVentures, LLC, priority 2018, dated 2024).
